This note sets out measurements from patent US10736932B2, “Small molecule Ras inhibitors” (Ohio State Innovation Foundation, priority 2014, dated 2020).

Usually Kd stands for the equilibrium constant for the complex coming apart. A higher Kd goes with weaker binding. The IC50 is the concentration at which inhibition is half-maximal. A lower IC50 goes with greater potency in that assay.

The target in one assay is T1, K-Ras(G12V) (Homo sapiens, UniProt P01116, G12V).
T1 construct: The G12V mutant K-Ras (amino acids 1-185) was recombinantly fused; GST (N, cleaved yes); made in house; host or cells: Escherichia coli BL21
The assay is described as follows: Fluorescence anisotropy (FA) binding of FITC-labeled cyclic peptides to K-Ras. The conditions noted are these: Table 1, resynthesized FITC-labeled peptides. (In general: Polarisation of emitted light reports the rotation of a fluorescent probe.)

Assay [1] concerns the target T2, K-Ras / Raf RBD interaction (Homo sapiens, UniProt P01116, G12V).
T2 construct: The G12V mutant K-Ras (amino acids 1-185) was recombinantly fused; GST (N, cleaved yes); made in house; host or cells: Escherichia coli BL21
The assay can be described thus: HTRF assay, inhibition of Ras-Raf RBD interaction.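 Further: HTRF signal read after overnight incubation of the assay plate at 4 °C.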 In kind it is binding. A general note: Time-resolved FRET reads energy transfer from a long-lived donor to a nearby acceptor.

As to “(Arg-Arg-nal-Arg-Fpa-ala-Fpa-Thr-nal-Gln) [Cyclorasin 11A]”, the dissociation constant (Kd) on K-Ras(G12V) is > 10 µM.
Same read-out and setting: then “(Arg-Arg-nal-Arg-Fpa-nle-Tyr-asn-ala-Ile-Gln) [Cyclorasin 10A]”, with > 10 µM.
The substance “(BzlHis-Thr-ala-arg-Arg-Arg-nal-Arg-Fpa-nle-Gln) [Cyclorasin 9A8]” displayed a 50% inhibitory concentration (IC50) in assay [1] of 590 ± 120 nM.
